Our source for the Activity values is ChEMBL document CHEMBL1148491, “Synthesis and pharmacological characterization of nicotinic acetylcholine receptor properties of (+)- and (-)-pyrido-[3,4-b]homotropanes” (J Med Chem, 2006).

SMILES strings stand for the structures.

For the experiment, the system named is Rattus norvegicus. Kind of experiment: Agonist activity on nicotine discrimination in rat at 0.4 mg/kg by lever press assay. It counts as functional.

`CN1CCC[C@H]1c1cccnc1` [NICOTINE] returned an Activity of 98.3%.
